This note sets out measurements from US11904020B2, “Bicyclic peptide ligands specific for TREM2” (Bicycle Tx Limited, priority 2021, dated 2024).

Sequences of proteins named here, by UniProt entry; tags and fusion partners are left off. Residues count along the entry.
UniProt Q9NZC2, 19-131: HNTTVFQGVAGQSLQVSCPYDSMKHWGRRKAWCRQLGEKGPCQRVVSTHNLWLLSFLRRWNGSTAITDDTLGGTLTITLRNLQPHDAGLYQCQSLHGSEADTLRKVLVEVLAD

Each structure is given as a SMILES string.

The experiment has as its target TREM2 extracellular domain (ECD) (residues 19-131, C-terminally biotinylated, deglycosylated or glycosylated) (Homo sapiens, UniProt Q9NZC2). The experiment is described as follows: biochemical. To be noted: Human BLI (Kd; nM) (deglycosylated), steady-state KD, 25° C.
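Further: Bio-layer interferometry in 50 mM HEPES pH 7.5 with 150 mM NaCl and 0.1% Tween, double-referenced with blank wells and unrelated-protein sensors, equilibrium response fitted versus concentration.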

With `C[C@H](N)C(=O)N[C@H]1CSCCC(=O)N2CN3CN(C2)C(=O)CCSC[C@H](NC(=O)[C@H](Cc2ccc(O)cc2)NC(=O)[C@H](CCC(=O)O)NC(=O)[C@H](CO)NC1=O)C(=O)N[C@@H](Cc1ccccc1)C(=O)N[C@@H](Cc1c[nH]c2ccccc12)C(=O)N1CCC[C@H]1C(=O)N[C@@H](Cc1ccccc1)C(=O)N[C@@H](Cc1c[nH]c2ccccc12)C(=O)N[C@@H](CC(N)=O)C(=O)N[C@H](C(=O)N[C@@H](C)C(N)=O)CSCCC3=O` [BCY17671, A-(SEQ ID NO: 4)-A], binding (Table 4A) was characterised by a dissociation constant (Kd) of 900 nM.

Where the note is “Table 4A”, `C[C@H](N)C(=O)N[C@H]1CSCCC(=O)N2CN3CN(C2)C(=O)CCSC[C@H](NC(=O)[C@H](Cc2ccc(O)cc2)NC(=O)[C@H](CCC(=O)O)NC(=O)[C@H](CO)NC1=O)C(=O)N[C@@H](Cc1ccccc1)C(=O)N[C@@H](Cc1c[nH]c2ccccc12)C(=O)N1CCC[C@H]1C(=O)N[C@@H](Cc1ccccc1)C(=O)N[C@@H](Cc1ccccc1)C(=O)N[C@@H](CC(N)=O)C(=O)N[C@H](C(=O)N[C@@H](C)C(N)=O)CSCCC3=O` [BCY17672, A-(SEQ ID NO: 45)-A] yielded a Kd of 2000 nM.

In turn, `CC(C)C[C@@H]1NC(=O)[C@H](Cc2ccc(O)cc2)NC(=O)[C@H](Cc2ccccc2)NC(=O)[C@@H]2CCCN2C(=O)[C@H](Cc2c[nH]c3ccccc23)NC(=O)[C@H](Cc2ccccc2)NC(=O)[C@@H]2CSCCC(=O)N3CN(CN(C3)C(=O)CCSC[C@@H](C(=O)N[C@@H](C)C(N)=O)NC1=O)C(=O)CCSC[C@H](NC(=O)[C@H](C)N)C(=O)N[C@@H](CO)C(=O)N[C@@H](CCC(=O)O)C(=O)N[C@@H](Cc1ccc(O)cc1)C(=O)N2` [BCY19777, A-(SEQ ID NO: 16)-A] registered a Kd (Table 4A) of roughly 1200 nM.

`CC(=O)N[C@H]1CSCCC(=O)N2CN3CN(C2)C(=O)CCSC[C@H](NC(=O)[C@H](Cc2ccc(O)cc2)NC(=O)[C@H](CCC(=O)O)NC(=O)[C@H](CO)NC1=O)C(=O)N[C@@H](Cc1ccccc1)C(=O)N[C@@H](Cc1c[nH]c2ccccc12)C(=O)N1CCC[C@H]1C(=O)N[C@@H](Cc1ccccc1)C(=O)N[C@@H](Cc1ccc(O)c(C(C)(C)C)c1)C(=O)N[C@@H](Cc1c[nH]cn1)C(=O)N[C@H](C(N)=O)CSCCC3=O` [BCY20080, Ac-(SEQ ID NO: 76)]: where the note is “Table 4B”, the affinity, expressed as Kd, was 375 nM.

The compound `CC(=O)N[C@H]1CSCCC(=O)N2CN3CN(C2)C(=O)CCSC[C@H](NC(=O)[C@H](Cc2ccc(O)cc2)NC(=O)[C@H](CCC(=O)O)NC(=O)[C@H](CO)NC1=O)C(=O)N[C@@H](Cc1ccccc1)C(=O)N[C@@H](Cc1c[nH]c2ccccc12)C(=O)N1CCC[C@H]1C(=O)N[C@@H](Cc1ccccc1)C(=O)N[C@@H](Cc1cccc2ccccc12)C(=O)N[C@@H](Cc1c[nH]cn1)C(=O)N[C@H](C(N)=O)CSCCC3=O` [BCY20081, Ac-(SEQ ID NO: 77)] gave an equilibrium dissociation constant (Kd) (Table 4B) of 1060 nM.

For the compound `C#CCCC(=O)NCCCC[C@@H]1NC(=O)[C@H](CO)NC(=O)[C@@H](NC(C)=O)CSCCC(=O)N2CN3CN(C2)C(=O)CCSC[C@H](NC(=O)[C@H](Cc2ccc(O)cc2)NC1=O)C(=O)N[C@@H](Cc1ccccc1)C(=O)N[C@@H](Cc1c[nH]c2ccccc12)C(=O)N1CCC[C@H]1C(=O)N[C@@H](Cc1ccccc1)C(=O)N[C@@H](Cc1ccc(O)cc1)C(=O)N[C@@H](Cc1c[nH]cn1)C(=O)N[C@H](C(N)=O)CSCCC3=O` [BCY20096, Ac-(SEQ ID NO: 84)], under “Table 4B”, the dissociation constant Kd is 2500 nM.

For `CC(=O)N[C@H]1CSCCC(=O)N2CN3CN(C2)C(=O)CCSC[C@H](NC(=O)[C@H](Cc2ccc(O)cc2)NC(=O)[C@H](CCC(=O)O)NC(=O)[C@H](CO)NC1=O)C(=O)N[C@@H](Cc1ccccc1)C(=O)N[C@@H](Cc1c[nH]c2ccccc12)C(=O)N1CCC[C@H]1C(=O)N[C@@H](Cc1ccccc1)C(=O)N[C@@H](Cc1ccc(O)cc1)C(=O)N[C@@H](CCCCNC(=N)N)C(=O)N[C@H](C(N)=O)CSCCC3=O` [BCY20575, Ac-(SEQ ID NO: 101)], for the setting “Table 4B”, the Kd turned out to be 375 nM.

In general, Kd refers to the free concentration of one partner at which half of the binding sites on the other are occupied at equilibrium, for simple one-to-one binding. Read a low Kd as tighter binding.
